Literature values, collected in PMC3065546 (Pain, 2011).

The chains behind the UniProt entries cited, without tags or fusion partners.
UniProt P33261, whole entry: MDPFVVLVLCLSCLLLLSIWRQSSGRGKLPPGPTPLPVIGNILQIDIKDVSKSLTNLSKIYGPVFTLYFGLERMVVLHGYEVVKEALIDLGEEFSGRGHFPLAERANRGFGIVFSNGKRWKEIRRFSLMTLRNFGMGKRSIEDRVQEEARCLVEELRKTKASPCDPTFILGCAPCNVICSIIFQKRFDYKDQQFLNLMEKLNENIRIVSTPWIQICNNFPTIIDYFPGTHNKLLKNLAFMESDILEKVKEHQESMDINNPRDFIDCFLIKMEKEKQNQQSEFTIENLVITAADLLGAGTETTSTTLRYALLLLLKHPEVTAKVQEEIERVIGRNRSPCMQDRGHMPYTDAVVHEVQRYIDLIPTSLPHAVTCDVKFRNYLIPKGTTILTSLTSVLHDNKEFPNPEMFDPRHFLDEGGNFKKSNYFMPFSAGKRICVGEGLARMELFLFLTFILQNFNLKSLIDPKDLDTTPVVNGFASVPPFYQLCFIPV

Molecular target: cDNA-expressed human CYP2C19 (Homo sapiens, UniProt P33261)
Details: read-out: Ki CYP2C19; cited from earlier work

Question: Which Ki does the source give for `OC(Cn1cncn1)(Cn1cncn1)c1ccc(F)cc1F` [Fluconazole, fluconazole] here?
Answer: 1050 nM
